In this assay the test system is MDA-MB-468 breast. As to the kind of experiment: inhibition of tumour cell growth, NCI panel, 48 h.

Some salts and complexes are drawn in separate pieces, as the source files them; their charges need not balance.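 How tested: cells in 96-well plates exposed to compound for 48 hours at five concentrations. GI50 marks 50% less growth. TGI: concentration producing complete growth inhibition.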

The results in this text go back to PubChem BioAssay (NCI).

On to `O=[N+]([O-])c1cc([N+](=O)[O-])c(O)c([N+](=O)[O-])c1.c1ccc([I+]c2ccccc2)cc1`, for which the GI50 is 628 nM and the TGI was more than 100000 nM.
